Screening data deposited in PubChem BioAssay by Broad Institute.
A selection: hits, their analogues and other compounds. The true share with any hit is near 2.8%.
UUG fidelity: modulators of yeast start codon fidelity, primary screen, whole organism, S. cerevisiae, single point, plate reader; S. cerevisiae UUG-firefly luciferase reporter, luminescence/redox ratio; activity score, % at 18.7 µM; 0.13% of 350,000 active; AID 602363, 2012;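 active = replicate mean at a twofold rise or more, about +100% in these data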;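 also: firefly luciferase made from a UUG start codon reports start codon fidelity; reporter light over untreated wells divided by growth signal over untreated wells; some hits fall short of that in this replicate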
PGC1a acetyl inh: PGC1a acetylation modulation, inhibitor mode; U2OS PGC1a acetylation, AlphaScreen anti-acetyl-lysine; with virally co-expressed GCN5 acetyltransferase; 350,000 tested, 0.17% active; inhibition, % at 15.6 µM;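 active = every replicate shows inhibition of at least 40%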;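 note: 0% = neutral control wells and 100% = positive control wells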
E-sel inducer: E-selectin induction on HUVECs. HUVEC E-selectin immunofluorescence imaging; normalized: neutral wells 0, TNF-alpha wells 100. 260,000 tested, 0.37% active. activation, % at 7.58 µM. P16581;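 active = mean E-selectin-positive cell signal at least 10% of the positive control, reached in at least 60% of replicates, without over 20% cell loss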
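System: HUVEC / Compound: single concentration / Signal: immunofluorescence imaging / Read-out: percent E-selectin-positive cells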
PglD inh: blocks C. jejuni PglD acetyltransferase activity; inhibition, % at 12.5 µM; AID 602405; purified PglD enzyme, DTNB colorimetric CoA detection; 360,000 tested, 0.098% active; in the data active = inhibition above about 16%, passing the limit was not always enough
C2C12 statin: suppression of simvastatin myotoxicity; C2C12 myotubes + simvastatin, ATP luminescence, 48 h; scaled: DMSO 0, geranylgeraniol control 100; rescue of ATP level, % at 7.49 µM; 330,000 tested, 0.78% active; AID 602340;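 active = mean ATP rescue above about 67%, or every replicate alone reaching that limit, limit read from the data, passing the limit was not always enough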;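 note: myotubes were challenged with 10 µM simvastatin during compound exposure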
esBAF inh: SWI/SNF esBAF complex inhibition. reporter increase, % at 12.5 µM. mouse ES cells, Bmi1-luciferase knock-in reporter, 24 h; 100% = twice the neutral-well signal. 350,000 tested, 2% active. AID 602393; in the data active = activation above about 40%;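 note: 0% = median of the plate's neutral control wells and 100% = double that signal; a rise in the Bmi1 reporter signal indicates esBAF inhibition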
* marks the source's active call; other numbers are inactive results; . = no result.

compound | UUG fidelity | PGC1a acetyl inh | E-sel inducer | PglD inh | C2C12 statin | esBAF inh
O=C(Nc1ccc(F)c(Cl)c1)c1ccccc1NC(=O)C1CCCCC1C(=O)O (stereo not drawn) | 7 | . | . | -2 | 8 | 66*
COc1ccc(S(=O)(=O)N(C)C[C@@H]2Oc3ccc(NC(=O)CCCCCC(=O)Nc4ccccc4N)cc3CC(=O)N([C@H](C)CO)C[C@H]2C)cc1 | 10 | -14 | 0 | 2 | 2 | -3
C[C@@H]1CN([C@@H](C)CO)S(=O)(=O)c2ccc(-c3ccc(C(=O)N(C)C)cc3)cc2O[C@@H]1CN(C)C(=O)C1CC1 | . | -5 | 0 | . | 7 | .
O=[N+]([O-])c1ccc(N=NN(CCO)CCO)cc1 | . | . | 0 | . | . | .
O=[N+]([O-])c1ccc(N=Nc2ncc[nH]2)cc1 | -6 | . | 30* | -2 | 22 | -51
Cc1cccc(-c2nc(C#N)c(NC3CCCCC3)o2)c1 | 3 | -10 | . | 2 | -30 | 62*
N#Cc1nc(-c2ccco2)oc1N1CCCC1 | . | 5 | . | . | 112* | 0
Cc1ccc(-c2nc(C#N)c(N3CCCCC3)o2)cc1 | -8 | -7 | 0 | -5 | 3 | 3
Cc1cccc(-c2nc(C#N)c(N3CCCCC3)o2)c1 | -15 | -4 | . | 3 | 1 | 50*
CN(C[C@H]1N[C@H](CO)[C@@H]1c1ccc(-c2cccnc2)cc1)C(=O)NC1CCCC1 | . | . | 0 | . | . | .

The last three compounds of the section before come first, to join the parts.
compound | UUG fidelity | PGC1a acetyl inh | E-sel inducer | PglD inh | C2C12 statin | esBAF inh
Cc1ccc(-c2nc(C#N)c(N3CCCCC3)o2)cc1 | -8 | -7 | 0 | -5 | 3 | 3
Cc1cccc(-c2nc(C#N)c(N3CCCCC3)o2)c1 | -15 | -4 | . | 3 | 1 | 50*
CN(C[C@H]1N[C@H](CO)[C@@H]1c1ccc(-c2cccnc2)cc1)C(=O)NC1CCCC1 | . | . | 0 | . | . | .
COc1ccccc1CN1CC(C(=O)N(C)Cc2[nH]c3ccccc3c2C)CCC1=O (stereo not drawn) | 6 | -2 | 119* | 1 | 8 | 4
COc1ccc(CN2CCCC(C(=O)N(C)Cc3ccccc3)C2)cc1OC (stereo not drawn) | 2 | -6 | . | 0 | . | 5
COc1ccccc1CN1CCCC(C(=O)N(C)Cc2ccccc2)C1 (stereo not drawn) | . | 45* | . | . | . | .
CC(C)C#Cc1ccc2c(c1)O[C@@H](CN(C)C(=O)C1CCCCC1)[C@@H](C)CN([C@@H](C)CO)S2(=O)=O | 15 | 2 | 1 | . | 34 | 2
Cc1cc(C)nc(N2CCC(C(=O)NCc3ccco3)CC2)n1 | -10 | 95* | . | 1 | 3 | 0
C[C@@H]1CN([C@H](C)CO)C(=O)c2cc(-c3ccc(F)cc3)cnc2O[C@@H]1CN(C)CC1CCCC1 | 20 | -2 | 1 | 3 | 12 | -11
Brc1ccc(N/N=C(/N=Nc2nn[nH]n2)c2ccccc2)cc1 | . | 97* | . | . | . | .
COc1ccccc1CC(Cc1nc2ccccc2[nH]1)c1nc2ccccc2[nH]1 (stereo not drawn) | . | 2 | 176* | . | . | .
Cc1cccc(CC(Cc2nc3ccccc3[nH]2)c2nc3ccccc3[nH]2)c1 (stereo not drawn) | . | -9 | . | . | . | .
C[C@@H]1CN([C@H](C)CO)C(=O)Cc2cc(NC(=O)Nc3ccc(F)cc3)ccc2O[C@@H]1CN(C)Cc1ccncc1 | -15 | 0 | 44* | 9 | -5 | 15

(list continues)
Values run as follows: UUG fidelity | PGC1a acetyl inh | E-sel inducer | PglD inh | C2C12 statin | esBAF inh
> C[C@@H]1CN([C@@H](C)CO)C(=O)Cc2cc(NC(=O)Nc3ccc(F)cc3)ccc2O[C@H]1CN(C)Cc1ccncc1
  -6 | 1 | -13 | -1 | -7 | -5
> C[C@@H]1CN([C@@H](C)CO)C(=O)Cc2cc(NC(=O)Nc3ccc(F)cc3)ccc2O[C@@H]1CN(C)Cc1ccncc1
  -16 | 6 | 127* | 5 | -12 | 1
> CCC(=O)N1CC2(C1)CN(Cc1cccc(F)c1)[C@@H](CO)c1c2c2ccc(OC)cc2n1C
  . | 1 | 0 | . | . | .
> C[C@@H]1CCCCO[C@@H](CN(C)C(=O)Nc2ccc3c(c2)OCO3)[C@H](C)CN([C@H](C)CO)C(=O)c2cc(NS(C)(=O)=O)ccc2O1
  3 | 3 | 0 | -1 | . | -1
> COC(=O)c1ccc(C2CC(=O)NC3=C2C(=O)CCC3)cc1 (stereo not drawn)
  -8 | -8 | . | -17 | 114* | -4
> NS(=O)(=O)c1ccc(NC(=O)CCC(=O)N2CCOCC2)cc1
  -4 | . | 34* | 5 | -5 | 2
> O=C(CCC(=O)N1CCOCC1)Nc1ccc(Cl)c(Cl)c1
  -4 | -3 | 85* | 4 | . | .
> NS(=O)(=O)c1ccc(NC(=O)COC(=O)CCc2ccc(S(=O)(=O)N3CCOCC3)cc2)cc1
  -9 | 5 | . | 2 | -5 | -7
> O=C(CCC(=O)N1CCCCC1)Nc1ccc(Cl)c(Cl)c1
  -10 | . | 2 | -3 | 5 | -5
